Bounds are passed on as bounds.

Drawing on article PMC4775281 (Structure (London, England : 1993), 2016), this text covers Kd for 1 substance.

Test [1] deals with phospholamban PLN1-19 1-19 (Homo sapiens) (UniProt P26678). In words: ITC. For orientation: ITC needs no label: the signal is the heat of the interaction.
Another test addresses PLN1-19 1-19 (UniProt P26678). The note with it: cited from earlier work.

In the case of PKA-C (from UniProt P05132), the Kd in test [1] is greater than 1000 µM; in the test with PLN1-19 1-19, 28 µM.

A word on the Kd: it is the concentration at which binding is half-saturated.
